Values of other authors, collected in patent US20190248834A1, “ENDOMORPHIN-2, TETRAPEPTIDE DERIVATIVES THEREOF, AND USES THEREOF” (priority 2016, published 2019).

Chains of the proteins cited; added tags and fusions are not shown.
UniProt P32300, whole entry: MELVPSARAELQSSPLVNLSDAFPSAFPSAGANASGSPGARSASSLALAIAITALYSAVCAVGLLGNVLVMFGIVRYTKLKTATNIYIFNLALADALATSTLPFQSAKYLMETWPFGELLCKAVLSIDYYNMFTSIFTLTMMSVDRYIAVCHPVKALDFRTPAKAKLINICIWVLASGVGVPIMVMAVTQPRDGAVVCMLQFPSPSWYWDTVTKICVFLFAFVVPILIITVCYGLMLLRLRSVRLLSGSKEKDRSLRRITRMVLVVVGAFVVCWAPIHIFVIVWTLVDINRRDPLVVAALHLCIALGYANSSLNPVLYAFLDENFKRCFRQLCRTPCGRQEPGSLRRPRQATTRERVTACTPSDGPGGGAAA

Biological target: delta receptors (Mus musculus, UniProt P32300)
Details: mouse brain; cited from earlier work

Substance | affinity for delta receptors
Tyr-Pro-Phe-Phe-NH2 | did not have any affinity
Tyr-Pro-Trp-Phe-NH2 [reference compound] | did not have any affinity
